Values quoted from earlier work in patent US8569482B2, “Nanoparticulate probe for in vivo monitoring of tissue oxygenation” (priority 2003, dated 2013).

System: gastrocnemius muscle tissue of C3H mice
Conditions: mouse, in vivo; cited from earlier work

Row | Substance | stability in tissue
1 | Lithium naphthalocyanine [LiNc] | only a few days
2 | Lithium phthalocyanine [LiPc] | about 3 weeks
